Literature values as cited in patent US6846837B2, “Topical administration of basic antifungal compositions to treat fungal infections of the nails” (priority 2002, dated 2005).
Some compounds may have been tested in ways that are not shown here.

Conditions: 0.1 N

OCCN(CCO)CCO
pH of Aqueous Solution (concentration): 10.5 (0.1 N)
